# Several values for one entry are separate records, joined by “and”; a condition that tells them apart may be missing. Equal values may be shown once. Only a part is listed here, and it is no random draw.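 Compound tested at a single concentration for 48 hours in 96-well plates; a percent growth value below 10 was scored as active.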 Activity calls are given as the source filed them.
# Test system: OVCAR-5 ovarian
# Assay: NCI-60 one-dose screen, 48 h (100 = growth as untreated, 0 = no growth, -100 = all killed)
# Details: 10 µM unless noted
row,SMILES,growth
1,CC1CCNP(=O)(N(CCCl)CCCl)O1 (stereo not given),inactive: 106%
2,CCN(CCCl)CC1OC(O)C(O)C1O (stereo not given),inactive: 104%
3,CN(CCCl)/N=N/c1nc2nc[nH]c(=O)c2[nH]1,inactive: 111%
4,Nc1ccc(N(CCCl)CCCl)cc1,inactive: 95.7%
5,c1cc(-c2nn[nH]n2)ccc1-c1nn[nH]n1,inactive: 108%
6,CCCC1OP(N)(=O)OCC1CC (stereo not given),inactive: 112% and inactive: 101%
7,CCOP(=S)(OCC)OCC,inactive: 98.7%
8,CCOP(=S)(OCC)SCCCl,inactive: 107%
9,CN(C)P1(Cl)=NP(Cl)(N(C)C)=NP(Cl)(N(C)C)=N1 (stereo not given),inactive: 109%
10,Nc1ccc(CCCCOc2ccccc2)cc1,inactive: 107%
11,O=[N+]([O-])c1cccc(Oc2ccc([N+](=O)[O-])cc2[N+](=O)[O-])c1,inactive: 57.3%
12,CCN(CC)[P+](c1ccc(OC)cc1OC)(N(CC)CC)N(CC)CC,inactive: 83.3%
13,O=C(Nc1ccc([N+](=O)[O-])cc1)N(CCBr)CCBr,inactive: 105%
14,O=P1(N(CCCl)CCCl)Nc2ccccc2N1,inactive: 121%
15,ClCCNCc1ccccc1,inactive: 109%
16,O=C(O)/C=C\c1cccc(N(CCCl)CCCl)c1,inactive: 105%
17,O=C(O[C@H]1CN2CCC1CC2)C1NCc2ccccc2[C@@H]1c1ccccc1 (stereo not given in full),inactive: 93.3%
18,CC(=O)Nc1ccc([As](=O)(O)O)c(O)c1,inactive: 116%
19,ClCCN1CCNCC1,inactive: 115%
20,Cc1cc([N+](=O)[O-])cc([N+](=O)[O-])c1O,inactive: 96.8%
